The results in this text go back to ChEMBL document CHEMBL1137633, “2,N6-disubstituted adenosine analogs with antitrypanosomal and antimalarial activities” (Antimicrob Agents Chemother, 2007).

The nature of this assay: Cytotoxicity against HEK293T cells after 16 hrs by alamar blue staining. Type of assay: cell-based, Homo sapiens. To be noted: hek-293t.

In general, IC50 refers to the concentration at which inhibition is half-maximal. The low end stands for inhibition by little substance, the high end for a need for much substance. `O=[As]c1ccccc1` (stereo unspecified) yielded an IC50 of 1240 nM.
